Data on one molecule can be found in ChEMBL document CHEMBL1123281, “Synthesis and rat lens aldose reductase inhibitory activity of some benzopyran-2-ones” (J Med Chem, 1986).

For orientation: IC50 means the concentration needed to halve the response being measured.

This assay concerns the target Aldo-keto reductase family 1 member B1 (Rattus norvegicus, UniProt P07943). In words: Compound was tested for inhibitory concentration against rat lens aldose reductase (uncompetitive inhibition type). An outline of the steps: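 Crude supernatant from 50 rat lenses homogenized in distilled water, centrifuged 10 000 rpm, 10 min, 0–5 °C. Read-out was NADPH decrease at 340 nm over 5 min in 0.1 M phosphate pH 6.2, 0.104 mM NADPH, 10 mM DL-glyceraldehyde. IC50 came from least-squares log dose–response fits, using ≥4 concentrations ×4 replicates. Inhibition type was read from double-reciprocal plots with 0.0625–1.0 mM substrate.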

In turn, `O=C1NC(=O)[C@@]2(CCOc3ccc(F)cc32)N1` [SORBINIL] registered a concentration for half-maximal inhibition (IC50) of 17 nM.
